# Assay results as given in ChEMBL document CHEMBL1150779, “Triazolopyrimidine-based dihydroorotate dehydrogenase inhibitors with potent and selective activity against the malaria parasite Plasmodium falciparum” (J Med Chem, 2008).
# Target: T1, Dihydroorotate dehydrogenase (Plasmodium falciparum) (UniProt Q54A96)
# T1 sequence (whole entry): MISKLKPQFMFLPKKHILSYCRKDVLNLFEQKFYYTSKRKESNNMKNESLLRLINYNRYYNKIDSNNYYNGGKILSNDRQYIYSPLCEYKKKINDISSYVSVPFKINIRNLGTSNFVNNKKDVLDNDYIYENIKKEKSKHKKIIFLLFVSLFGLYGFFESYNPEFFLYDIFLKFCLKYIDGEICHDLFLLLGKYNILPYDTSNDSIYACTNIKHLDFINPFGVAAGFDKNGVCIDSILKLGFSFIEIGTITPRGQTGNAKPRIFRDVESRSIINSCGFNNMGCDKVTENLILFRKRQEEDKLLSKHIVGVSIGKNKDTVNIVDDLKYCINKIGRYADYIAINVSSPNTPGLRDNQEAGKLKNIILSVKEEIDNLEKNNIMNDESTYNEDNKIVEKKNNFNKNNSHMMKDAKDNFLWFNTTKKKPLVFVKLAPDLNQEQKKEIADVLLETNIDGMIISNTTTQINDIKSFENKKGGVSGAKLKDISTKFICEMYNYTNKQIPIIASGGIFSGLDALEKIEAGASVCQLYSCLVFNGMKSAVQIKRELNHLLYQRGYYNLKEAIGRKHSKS
smiles,measurement,value
Cc1cc(Nc2ccc3ccccc3c2)n2ncnc2n1,Kinact,0.015 µM
